For test [1], the target named is T1, TET1CD (Homo sapiens, UniProt Q8NFU7).
T1 sequence (Q8NFU7 1418-2136): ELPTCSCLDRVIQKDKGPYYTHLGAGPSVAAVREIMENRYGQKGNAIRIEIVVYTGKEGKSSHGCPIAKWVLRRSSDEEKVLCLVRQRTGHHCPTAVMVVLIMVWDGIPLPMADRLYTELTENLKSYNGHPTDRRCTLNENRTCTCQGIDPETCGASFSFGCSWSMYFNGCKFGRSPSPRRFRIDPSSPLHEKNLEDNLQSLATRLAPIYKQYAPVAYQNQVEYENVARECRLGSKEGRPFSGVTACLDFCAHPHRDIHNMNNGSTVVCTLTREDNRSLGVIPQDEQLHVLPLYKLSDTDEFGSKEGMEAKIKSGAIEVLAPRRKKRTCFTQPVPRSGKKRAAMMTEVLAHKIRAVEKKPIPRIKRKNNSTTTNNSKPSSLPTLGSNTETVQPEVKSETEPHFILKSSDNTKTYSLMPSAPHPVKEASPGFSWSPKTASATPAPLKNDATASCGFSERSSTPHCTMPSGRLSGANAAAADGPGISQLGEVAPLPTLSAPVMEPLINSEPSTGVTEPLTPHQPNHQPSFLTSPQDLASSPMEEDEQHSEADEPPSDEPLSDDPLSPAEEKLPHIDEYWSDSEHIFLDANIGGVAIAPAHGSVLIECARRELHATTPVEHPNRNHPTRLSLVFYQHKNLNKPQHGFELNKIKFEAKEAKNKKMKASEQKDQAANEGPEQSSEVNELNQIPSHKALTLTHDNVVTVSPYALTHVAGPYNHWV
Format: biochemical. More on the design: TET1CD (E1418-V2136), which was produced in insect (Sf9) cells, was from a commercial source; purchased Epigentek E12002-1; host or cells: Sf9. As to conditions: read-out: IC50 TET1CD (AlphaScreen). On the technique in general: Bead proximity is the source of the signal in Alpha formats.

Test [2] concerns the target T1, TET1CD.

For orientation: IC50 means the concentration at which inhibition is half-maximal. The term EC50 denotes the concentration needed to bring the measured effect to its halfway point. On to `CC(C)(C)OC(=O)c1ccc(-n2[nH]cc(-n3ccnn3)c2=O)nc1` [IOX4], for which, in test [1], the IC50 came to 17 µM. Also, the midpoint of the response in test [2], the EC50, lay at 79 µM.
